OPERA 2.9 data: properties

The melting point is given in degrees Celsius. Boiling points are in °C, nominally at 760 mmHg. The octanol-water partition coefficient is given as log10; larger values mean a more lipophilic compound. Solubility in water is on a log10 molar scale (set defined at 25 °C). Vapor pressures (log10 mmHg) refer to near room temperature, 15 to 30 °C; higher is more volatile. The unbound fraction in human plasma runs from 0 (all bound) to 1 (all free). Clint is human hepatic intrinsic clearance in µL/min per million cells; 0 means that no clearance was seen. Cells with "n/a" have no entry in this list.

- C=COC(=O)c1ccccc1 [Vinyl benzoate]: mp -35.1 °C; boiling point 207.3 °C; logP 2.8; log solubility -2.623 (log10 mol/L); log vapor pressure -1.276 (log10 mmHg)
- CC(C)C(=O)Nc1ccc([N+](=O)[O-])c(C(F)(F)F)c1 [Flutamide]: log solubility -4.688 (log10 mol/L); plasma fu 0.04694; intrinsic clearance 30.38 µL/min/10^6 cells
- CC(C)(O)C(=O)c1ccc(Cc2ccc(C(=O)C(C)(C)O)cc2)cc1: mp 84.3 °C; boiling point 332.7 °C; logP 2.3
- Nc1cccc(S(=O)(=O)c2cccc(N)c2)c1 [3,3'-Sulphonyldianiline]: log solubility -3.512 (log10 mol/L); log vapor pressure -4.725 (log10 mmHg)
- CCCCC[C@H]1CC[C@H](c2ccc(CCC)cc2)CC1 [Benzene, 1-(trans-4-pentylcyclohexyl)-4-propyl-]: mp -9.6 °C; log vapor pressure -4.126 (log10 mmHg)
- COC1(C(F)(C(F)(F)F)C(F)(F)F)OC(F)(C(F)(C(F)(F)F)C(F)(F)F)C(F)(F)C1(F)F (stereo not drawn) [2-Methoxyperfluoro(2,5-di(propan-2-yl)oxolane)]: boiling point 167.4 °C; logP 6.6; log solubility -9.113 (log10 mol/L); log vapor pressure -0.079 (log10 mmHg)
- OC(Cn1ccnc1)c1ccc(Cl)cc1Cl (stereo not drawn): logP 2.335; log solubility -3.38 (log10 mol/L); log vapor pressure -8.914 (log10 mmHg)
- C[C@@H]1[C@@H](CN)C[C@H]2C[C@@H]1C2(C)C: boiling point 232.5 °C; log solubility -2.516 (log10 mol/L); log vapor pressure -1.101 (log10 mmHg)
- C=CCN(CC=C)c1cc(NC(C)=O)c(N=Nc2c(Br)cc([N+](=O)[O-])cc2[N+](=O)[O-])cc1OC: mp 176.5 °C; logP 6.9
- CCCCCCCCCCN(C)C [Decyldimethylamine]: mp -33 °C; log solubility -4.045 (log10 mol/L); log vapor pressure -1.268 (log10 mmHg)
- CC(C)Nc1cccnc1N1CCN(C(=O)c2cc3cc(NS(C)(=O)=O)ccc3[nH]2)CC1 [Delavirdine]: logP 2.8; log solubility -3.725 (log10 mol/L); plasma fu 0.02
- COc1cc2[nH]c(=O)c(=O)[nH]c2cc1[N+](=O)[O-] [1,4-Dihydro-6-methoxy-7-nitroquinoxaline-2,3-dione]: logP 0.36; log solubility -5.261 (log10 mol/L)
- CCOc1cc(NC(=O)c2ccccc2)c(OCC)cc1N [Benzamide, N-(4-amino-2,5-diethoxyphenyl)-]: logP 3.232; log solubility -2.406 (log10 mol/L)
- C=C[C@@](C)(/C=C/c1ccc(O)cc1)CCC=C(C)C [Bakuchiol]: logP 5.09; log solubility -6.337 (log10 mol/L); log vapor pressure -6.695 (log10 mmHg)
- CCCCCC[C@@H](O)C/C=C\CCCCCCCC(=O)OC [Methyl ricinoleate]: logP 5.1; log solubility -6.526 (log10 mol/L); log vapor pressure -3.166 (log10 mmHg)
- C=CC(=O)OCCOC(=O)NCCCCCCCCCCCCCCCCCC: mp 72.3 °C; log solubility -9.217 (log10 mol/L); log vapor pressure -5.292 (log10 mmHg)
- CCCCN(c1nc(N2CCCC2)nc(N(CCCC)C2CC(C)(C)N(C)C(C)(C)C2)n1)C1CC(C)(C)N(C)C(C)(C)C1: mp 158 °C; log solubility -4.958 (log10 mol/L)
- N=c1cc2n(-c3ccccc3)c3cc(Nc4ccccc4)c4c(S(=O)(=O)[O-])cccc4c3nc-2cc1S(=O)(=O)[O-].[Na+].[Na+]: mp 157 °C; logP -2.39; log solubility -3.679 (log10 mol/L)
- CCCCCCCC(=O)OCCOc1ccccc1 [Phenoxyethyl caprylate]: mp 14 °C; boiling point 342 °C; logP 4.9; log vapor pressure -4.535 (log10 mmHg)
- CC(C)CCOC(=S)S [Carbonodithioic acid, O-(3-methylbutyl) ester]: mp -6 °C; boiling point 90.5 °C; log vapor pressure 1.466 (log10 mmHg)
- Clc1cc(Oc2cc(Cl)c(Cl)c(Cl)c2Cl)c(Cl)c(Cl)c1Cl [2,2',3,3',4,4',5,5'-Octachlorodiphenyl ether]: mp 126 °C; log solubility -10.13 (log10 mol/L)
- CCCC[N+](C)(CCCC)CCCC.[Cl-] [N,N-Dibutyl-N-methylbutan-1-aminium chloride]: mp 43 °C; log vapor pressure -4.614 (log10 mmHg)
- CCCCCCC1CCCC(=O)O1 (stereo not drawn) [6-Hexyltetrahydro-2H-pyran-2-one]: mp 1.7 °C; logP 2.95; log solubility -2.454 (log10 mol/L); log vapor pressure -3.219 (log10 mmHg)
- CCCCCCCC/C=C\CCCCCCCC(=O)NCCCN(C)CCCNC(=O)CCCCCCC/C=C\CCCCCCCC: mp 41.7 °C; log solubility -8.431 (log10 mol/L)
- CC(=O)OC1CC2CC1C1CCCC21 (stereo not drawn) [Octahydro-4,7-methano-1H-inden-5-yl acetate]: logP 4.5; log solubility -3.338 (log10 mol/L); log vapor pressure -1.779 (log10 mmHg)
- C=C(C)C(=O)Nc1ccc(S(=O)(=O)Nc2nc(C)cc(C)n2)cc1: mp 237.2 °C; logP 1.1
- FC(F)(F)COc1cccnc1Cl [2-Chloro-3-(2,2,2-trifluoroethoxy)pyridine]: mp 41.8 °C; boiling point 223 °C; logP 2.2; log solubility -2.149 (log10 mol/L); log vapor pressure -1.599 (log10 mmHg)
- COc1cc(Cl)c(Cl)cc1O [4,5-Dichloroguaiacol]: mp 72 °C; log solubility -2.53 (log10 mol/L)
- CC1(C)[C@H]2CC=C(CCO)[C@@H]1C2 [(-)-Nopol]: logP 3.09; log solubility -2.698 (log10 mol/L); log vapor pressure -1.642 (log10 mmHg)
- C=CCCCCCCO [Oct-7-en-1-ol]: logP 2.41; log solubility -1.744 (log10 mol/L); log vapor pressure 0.065 (log10 mmHg)
- C=C(C)C(=O)OCCN(C)S(=O)(=O)C(F)(F)C(F)(F)C(F)(F)C(F)(F)F [2-(N-Methylperfluorobutanesulfonamido)ethyl methacrylate]: mp 52 °C; logP 4.89; log solubility -6.343 (log10 mol/L); log vapor pressure -2.301 (log10 mmHg)
- CCCCCCCC/C=C\CCCCCCCC(=O)OCC(C)OC(=O)CCCCCCC/C=C\CCCCCCCC (stereo partly drawn) [1-Methyl-1,2-ethanediyl 9-octadecenoate]: mp -15 °C; logP 8.474
- CCCCCCCCCCCCCCCCCCOCCCCCCCCCCCCCCCCCC [1-(Octadecyloxy)octadecane]: boiling point 401 °C; logP 4.1; log solubility -7.02 (log10 mol/L)
- COC(=O)c1ccc2cc(C(=O)OC)ccc2c1 [Dimethyl 2,6-naphthalenedicarboxylate]: logP 3.5; log solubility -6.257 (log10 mol/L); log vapor pressure -5.606 (log10 mmHg)

The last 3 entries again:

compound	name	mp (°C)	boiling point (°C)	logP	log solubility (log10 mol/L)	log vapor pressure (log10 mmHg)	plasma fu	intrinsic clearance (µL/min/10^6 cells)
CCCCCCCC/C=C\CCCCCCCC(=O)OCC(C)OC(=O)CCCCCCC/C=C\CCCCCCCC (stereo partly drawn)	1-Methyl-1,2-ethanediyl 9-octadecenoate	-15	n/a	8.474	n/a	n/a	n/a	n/a
CCCCCCCCCCCCCCCCCCOCCCCCCCCCCCCCCCCCC	1-(Octadecyloxy)octadecane	n/a	401	4.1	-7.02	n/a	n/a	n/a
COC(=O)c1ccc2cc(C(=O)OC)ccc2c1	Dimethyl 2,6-naphthalenedicarboxylate	n/a	n/a	3.5	-6.257	-5.606	n/a	n/a

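These are experimental values that the OPERA curators gathered from public databases to train and test their QSAR models. One number stands for a compound and property, with no spread given. Method, purity and exact conditions of the single measurements are not given. Where a salt, mixture or single isomer is drawn, the source does not say that exactly this form was tested. Some entries may be limits or estimates that an upstream database listed as plain numbers.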

From the experimental data distributed with OPERA 2.9.